Each structure is given as a SMILES string. The entries are a selection whose mix differs from that of the whole data set. Activity calls are given as the source filed them. Cut-off read from the data, not from the text of the source: active = inhibition above about 34%; inactive = the rest.

Chains of the proteins cited; added tags and fusions are not shown.
UniProt Q8NCG7, whole entry: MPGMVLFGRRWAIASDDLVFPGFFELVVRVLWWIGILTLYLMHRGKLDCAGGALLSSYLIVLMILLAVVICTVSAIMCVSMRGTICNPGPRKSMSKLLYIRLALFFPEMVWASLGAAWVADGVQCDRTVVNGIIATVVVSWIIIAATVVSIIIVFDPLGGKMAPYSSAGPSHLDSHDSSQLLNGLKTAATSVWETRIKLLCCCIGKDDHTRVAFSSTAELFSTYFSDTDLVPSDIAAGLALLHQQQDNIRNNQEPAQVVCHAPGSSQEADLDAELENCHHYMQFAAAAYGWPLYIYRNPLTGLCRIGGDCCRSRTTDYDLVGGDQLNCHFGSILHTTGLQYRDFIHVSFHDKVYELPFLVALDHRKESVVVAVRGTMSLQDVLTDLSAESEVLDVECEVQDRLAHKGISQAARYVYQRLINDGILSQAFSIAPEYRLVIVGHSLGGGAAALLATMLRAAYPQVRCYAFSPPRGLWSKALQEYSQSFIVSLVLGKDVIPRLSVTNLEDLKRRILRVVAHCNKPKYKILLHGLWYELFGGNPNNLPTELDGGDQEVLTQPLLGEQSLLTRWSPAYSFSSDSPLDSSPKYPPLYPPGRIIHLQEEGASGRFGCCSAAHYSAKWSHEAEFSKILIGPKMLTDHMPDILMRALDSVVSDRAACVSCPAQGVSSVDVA

What is called inhibition is the change of the read-out against control, counted positive when it falls.

This experiment deals with Diacylglycerol lipase-beta (Homo sapiens) (UniProt Q8NCG7). As to the kind of experiment: DAGLB lipase inhibitors, primary screen, biochemical, fluorescence, HTS (AID 504411).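 Note: 0% = enzyme with vehicle and 100% = wells lacking enzyme.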 The note with it: HEK293T DAGLB membrane lysate, EnzChek fluorogenic substrate; at 5.17 µM; hits give high values.
As to `CCC(=O)N(c1ccccc1)C1(COC)CCN(CCc2cccs2)CC1`, the inhibition is inactive: -2.02%.
Consider `CCC(=O)N(c1ccccc1)C1(COC)CCN(CCn2nnn(CC)c2=O)CC1`, for which the inhibition was inactive: 1.31%.

(Values after PubChem BioAssay AID504411 (The Scripps Research Institute Molecular Screening Center, 2011).)
